# A selection: hits, their analogues and other compounds. The true share with any hit is near 2.2%.
# Nrf2 inh: inhibitors of Nrf2 signaling | A549 ARE-Fluc reporter, luciferase luminescence, 18-24 h | Potency, µM (doses to about 46 µM), for the others: top-dose activity change, negative = inhibition, most hits filed as inhibitors | 360,000 tested, 2.1% active; note: potency is the fitted concentration of half-maximal effect; % is set by controls: 0 for no effect and ±100 for the full control effect; nearly all actives have a fitted effect of over 60% in size
#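 In this cell-based qHTS, ARE-driven firefly luciferase in A549 cells reports Nrf2 activity; the luminescent signal after BugLite lysis is the measured value, with a prior CellTiter-Fluor read for cell health.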
# B2AR arrestin: agonists driving beta-arrestin recruitment to human beta2-adrenergic receptor; Potency, µM (doses to about 46.1 µM), without a hit: at the highest dose activation, most hits filed as activators; AID 492947; P07550; beta-arrestin recruitment to beta2AR, cell-based reporter; 330,000 tested, 0.02% active;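 note: potency is the fitted concentration of half-maximal effect; 0% = DMSO controls and full agonism = EC100 isoproterenol or metaproterenol; nearly all actives have a fitted effect of over 65% in size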
# miR-21 reporter: raises the signal of a miR-21 reporter | Potency, µM (highest dose often 38.3 µM), without a hit: at the top dose reporter change, positive = more light | HeLa miR-21 FLuc reporter, luciferase, 48 h | 340,000 tested, under 10 active; active = well fitted rising curve with a large enough effect; inconclusive = small, poorly fitted or top-dose-only effect; inactive = no such curve, though single readings can be large or run the other way;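 further: % of control where 0% means no effect; miR-21 action dims this reporter so a rising signal means less miR-21 action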
#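 Using DMEM plus 10% FBS, HeLa miR-21-FLuc cells are incubated with test compounds (final up to about 40uM) for 48 hours; firefly luciferase signal is then imaged following reagent-mediated lysis.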
# Nrf2 activator: activators of Nrf2 (ARE) signaling; 410,000 tested, 0.31% active; AID 624171; AREc32 ARE-luciferase reporter (MCF7-derived line), luminescence, 24 h; Potency, µM (titrated, usually from 46.1 µM), for the others: top-dose activation, actives largely listed as activators; note: potency is the fitted concentration of half-maximal effect; % of control where 0% means no effect; nearly all actives have a fitted effect of over 65% in size
#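 ARE activation measured as luciferase luminescence (Steady-Glo, 30 min RT) in AREc32_Fluc cells after 24 hr compound exposure at 37 deg C, 5% CO2; cells seeded overnight at 1000/well in OPTI-MEM, 5% FBS.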
# A549 tox: counter-screen for Nrf2 inhibitors: cytotoxicity in A549 cells; Potency, µM (doses to about 46 µM), inactives show at the highest dose activity change, negative = cytotoxicity, usual class: inhibitors; 390,000 tested, 0.16% active; AID 504648; A549 ARE-Fluc cells, CellTiter-Fluor viability, 18-24 h; note: potency is the fitted concentration of half-maximal effect; % is set by controls: 0 for no effect and ±100 for the full control effect
#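 A549 ARE_Fluc cells in 5% FBS OPTI-MEM were exposed to compounds in concentration-response for 18-24 h at 37 deg C. Viability was read by CellTiter-Fluor fluorescence (Ex 405/Em 525) after 30 min, before the luciferase read.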
# Numbers without * were called inactive; ? = inconclusive; / = no result. Calls come from the whole dose curve; as a rule, active = well fitted curve in the direction sought with a large enough effect; inconclusive = small, poorly fitted or top-dose-only effect, or another doubt; inactive = no such curve, though single readings can be large; an effect the other way counts as inactive or inconclusive.
SMILES,Nrf2 inh,B2AR arrestin,miR-21 reporter,Nrf2 activator,A549 tox
Cc1ccc(-c2csc(=S)n2CC(=O)OCC(=O)NCc2ccco2)cc1,18µM*,0%,6%,16%,-19%
OCC1OC(n2cnc3c(NCc4ccccc4O)ncnc32)C(O)C1O (centres undefined),18µM*,/,/,?,-15%
OCC1OC(n2ccc3c(NO)ncnc32)C(O)C1O (centres undefined),?,/,/,-2%,2.1µM*
COc1ccc(NS(=O)(=O)c2ccc3c(c2)CCC(=O)N3)cc1,-12%,/,/,/,0%
N#CN1CCC(NS(=O)(=O)c2ccc(F)cc2)C1 (centres undefined),8%,/,/,/,-2%
Cc1ccc(Oc2c(C(N)=O)cc([N+](=O)[O-])cc2[N+](=O)[O-])cc1,5.8µM*,0%,?,-3%,4.1µM*
Cc1ccc(CNc2ccc([N+](=O)[O-])cc2C(N)=O)cc1,20%,0%,/,9%,-11%
COc1ccc(C(=O)/C=C/c2ccc(N3CCCCC3)c([N+](=O)[O-])c2)c(OC)c1,?,0%,-11%,13µM*,-22%
O=C(Nc1ccc(Cl)cc1)N1CCN(C(=O)C2CCCO2)CC1 (centres undefined),-13%,0%,-2%,-1%,-1%
O=C(Nc1cc(Cl)cc(Cl)c1)N1CCN(C(=O)C2CCCO2)CC1 (centres undefined),16µM*,0%,-5%,1%,6%
CCN(C(=O)CSc1cc(-c2ccccc2)c2ccc(OC)cc2n1)C1CCS(=O)(=O)C1 (centres undefined),23µM*,0%,1%,4%,?
CCN(C(=O)CSc1cc(C)c2ccc(OC)cc2n1)C1CCS(=O)(=O)C1 (centres undefined),-4%,0%,-1%,-1%,0%
COc1ccc(N2CCN(C(=O)c3ccc(COc4ccc([N+](=O)[O-])cc4)o3)CC2)cc1,23µM*,0%,22%,0%,-18%
O=C(c1ccc2nsnc2c1)N1CCN(c2ccc([N+](=O)[O-])cc2)CC1,23µM*,0%,-1%,5%,-7%
O=C(Cc1ccc([N+](=O)[O-])cc1)N1CCN(c2ccc([N+](=O)[O-])cc2)CC1,?,0%,29%,0%,-13%
O=C(Cc1ccccc1)N1CCN(c2ccc([N+](=O)[O-])cc2)CC1,26µM*,0%,11%,0%,-21%
O=C(c1cc([N+](=O)[O-])ccc1Cl)N1CCN(c2ccc([N+](=O)[O-])cc2)CC1,21µM*,6%,0%,1%,?
Cc1ccc(C)c(CN2CCC(CNC(=O)C(CC(C)C)N3Cc4ccccc4C3=O)CC2)c1 (centres undefined),?,/,21%,8%,-17%
COc1ccc(-c2nc3ccccn3c2Nc2ccccc2C)cc1,?,/,/,/,-1%
O=[N+]([O-])c1ccc(Cl)c(/C=N/N2CCN(c3ccccc3)CC2)c1,9%,0%,-9%,13µM*,0%
COc1ccccc1N1CCN(/N=C/c2cc([N+](=O)[O-])ccc2Cl)CC1,21%,0%,2%,3%,-2%
COc1cccc(-n2nnnc2SCC(=O)Nc2nc3c(s2)CCCC3)c1,-9%,5%,-22%,8%,6%
O=C(CSc1nnnn1-c1ccc2c(c1)OCCO2)Nc1nc2c(s1)CCCC2,13µM*,0%,5%,3%,?
O=C(NCCN1CCN(c2cccc(Cl)c2)CC1)C1COc2ccccc2C1 (centres undefined),/,/,26%,7%,7%
C(=C\c1ccc(/C=C/c2ccccc2)nn1)/c1ccccc1,/,-1%,-7%,/,/
N#CCSc1nccc(/C=C/c2ccccc2)n1,?,0%,-45%,11µM*,3%
O=C(NCc1ccccc1)c1ccc(NC(=O)c2nsc3ccccc23)cc1,/,/,-36%,1%,-13%
Cc1ccc2onc(CNC(=O)N3CCN(c4cccc(C)c4C)CC3)c2c1,?,/,-3%,4%,5%
Cc1ccc(/C=N/NC(=O)c2c(-c3ccccc3)noc2C)c(O)c1,/,-1%,19%,/,/

# Entries of single compounds as entered above. Screens in order: Nrf2 inh, B2AR arrestin, miR-21 reporter, Nrf2 activator, A549 tox
# `CCN(C(=O)CSc1cc(-c2ccccc2)c2ccc(OC)cc2n1)C1CCS(=O)(=O)C1` (centres undefined) as listed: 23µM*, 0%, 1%, 4%, ?
# `Cc1ccc2onc(CNC(=O)N3CCN(c4cccc(C)c4C)CC3)c2c1` as listed: ?, /, -3%, 4%, 5%
# `O=C(Cc1ccc([N+](=O)[O-])cc1)N1CCN(c2ccc([N+](=O)[O-])cc2)CC1` as listed: ?, 0%, 29%, 0%, -13%
# `OCC1OC(n2ccc3c(NO)ncnc32)C(O)C1O` (centres undefined) as listed: ?, /, /, -2%, 2.1µM*
